Compound activity as filed in PubChem BioAssay.
Yeast UUG start: modulators of yeast start codon fidelity, primary screen, whole organism, S. cerevisiae, single point, plate reader; S. cerevisiae UUG-firefly luciferase reporter, luminescence/redox ratio; activity score, % at 18.7 µM; actives 0.13% (n = 350,000); AID 602363, 2012;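 active = replicate mean at a twofold rise or more, about +100% in these data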;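 also: firefly luciferase made from a UUG start codon reports start codon fidelity; reporter light over untreated wells divided by growth signal over untreated wells; some hits fall short of that in this replicate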
esBAF inh: Bmi1 luciferase reporter increase in mESCs, primary screen, esBAF inhibitor project, mouse ES cells, Bmi1 luciferase knock-in, single point. AID 602393, 2012. 24 h; 100% = twice the neutral-well signal. 350,000 tested, 2% active. reporter increase, % at 12.5 µM; in the data active = activation above about 40%;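 note: 0% = median of the plate's neutral control wells and 100% = double that signal; a rise in the Bmi1 reporter signal indicates esBAF inhibition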
PglD DTNB: C. jejuni PglD acetyltransferase inhibitors, primary screen, biochemical, DTNB colorimetric, single point. UDP-N-acetylbacillosamine N-acetyltransferase PglD (Campylobacter jejuni). purified PglD enzyme, DTNB colorimetric CoA detection. inhibition, % at 12.5 µM. 360,000 tested, 0.098% active. AID 602405, 2012; in the data active = inhibition above about 16%, passing the limit was not always enough
E-sel inducer: E-selectin induction in HUVECs, primary screen, imaging, HUVEC, immunofluorescence imaging, single point | P16581 | normalized: neutral wells 0, TNF-alpha wells 100 | activation, % at 7.58 µM | 260,000 tested, 0.37% active | AID 686992, 2013;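 active = mean E-selectin-positive cell signal at least 10% of the positive control, reached in at least 60% of replicates, without over 20% cell loss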
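Read-out: % PE-positive cells | Test system: HUVEC | Doses: One compound dose added by pin transfer | Buffer or medium: EGM-2 over gelatin coat | Signal: Immunofluorescence imaging | Benchmarks: TNF-alpha, DMSO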
C2C12 statin: suppressors of statin myotoxicity in C2C12 myotubes, primary screen, cell-based, single point, plate reader; C2C12 myotubes + simvastatin, ATP luminescence, 48 h; scaled: DMSO 0, geranylgeraniol control 100; rescue of ATP level, % at 7.49 µM; 330,000 tested, 0.78% active;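 active = mean ATP rescue above about 67%, or every replicate alone reaching that limit, limit read from the data, passing the limit was not always enough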;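 note: myotubes were challenged with 10 µM simvastatin during compound exposure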
PGC1a acetyl inh: inhibitors of PGC1a acetylation signal, primary screen, cell-based, U2OS, AlphaScreen, inhibitor mode; 350,000 tested, 0.17% active; inhibition, % at 15.6 µM; AID 651687, 2012; AlphaScreen anti-acetyl-lysine; with virally co-expressed GCN5 acetyltransferase;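 active = every replicate shows inhibition of at least 40%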;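 note: 0% = neutral control wells and 100% = positive control wells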
* marks the source's active call; other numbers are inactive results; x = no result given. In the library only some 2.8% were active in any assay of this set; here they are far more common.

Short keys: A = Yeast UUG start; B = esBAF inh; C = PglD DTNB; D = E-sel inducer; E = C2C12 statin; F = PGC1a acetyl inh
Structure: O=C(O)c1c[nH]c2ccc(S(=O)(=O)N3CCOCC3)cc12
  A: -14 | B: -1 | C: -1 | D: -2 | E: 107* | F: -3

Structure: CCOC(=O)c1c(C)nc(-c2ccccc2)nc1N
  A: -6 | B: 50* | C: -8 | D: x | E: -1 | F: -9

Structure: CCOC(=O)c1c(-c2ccccc2)cn2c(C)cc(C)nc12
  A: -7 | B: 63* | C: 0 | D: x | E: -1 | F: 4

Structure: CCOC(=O)c1c(C)nc(C)c(C(=O)OCC)c1-c1ccccc1
  A: x | B: x | C: x | D: x | E: x | F: -26

Structure: O=C(C[C@@H]1C=C[C@@H](NC(=O)C2CCC2)[C@H](CO)O1)NCCCN1CCOCC1
  A: -23 | B: -1 | C: -4 | D: 0 | E: 5 | F: -10

Structure: C[C@H](CO)N1C[C@H](C)[C@@H](CN(C)C(=O)C2CC2)Oc2ncc(/C=C/c3ccccc3)cc2C1=O
  A: x | B: x | C: x | D: 0 | E: 39 | F: -3

Structure: COc1ccc(Cc2c(-c3ccc(F)cc3)nc3ccc(Br)cn23)c(C)c1
  A: -2 | B: 57* | C: 3 | D: 0 | E: -12 | F: 1

Structure: COc1ccc(Cc2c(-c3cccc(Br)c3)nc3ccc(Br)cn23)c(C)c1
  A: -6 | B: 34 | C: 3 | D: x | E: -27 | F: 1

Structure: COc1ccc(Cc2c(-c3cccc(Cl)c3)nc3ccc(Br)cn23)c(C)c1
  A: -16 | B: 51* | C: 5 | D: 0 | E: -33 | F: 0

Structure: FC(F)(F)c1ccccc1Cc1c(-c2cccc(Cl)c2)nc2ccc(Br)cn12
  A: -15 | B: 42* | C: -6 | D: 0 | E: 4 | F: -2

Structure: Cc1cc(Br)cn2c(Cc3ccccc3C(F)(F)F)c(-c3cccc(Cl)c3)nc12
  A: x | B: x | C: x | D: 0 | E: x | F: x

Structure: CCCNC(=O)C[C@H]1CC[C@H]2[C@@H](COc3ccc(NS(=O)(=O)c4ccccc4C)cc3C(=O)N2C)O1
  A: 10 | B: 0 | C: 0 | D: 0 | E: 6 | F: -9

Structure: O=C(C1CCOCC1)N1C[C@H]2[C@@H](c3ccccc31)[C@H](CO)N2C(=O)c1ccccc1
  A: 1 | B: -5 | C: 0 | D: 0 | E: -9 | F: 5

Structure: COc1ccc(C)cc1NC(=O)C1CCCN1C(=O)OCc1ccccc1 (configuration not stated)
  A: -8 | B: -2 | C: 2 | D: x | E: 132* | F: -18

Structure: Cc1cccc(NC(=O)C2CCCN2C(=O)OCC(C)C)c1C (configuration not stated)
  A: -13 | B: -4 | C: -4 | D: x | E: 91* | F: 5

Continuation.
Short keys: A = Yeast UUG start; B = esBAF inh; C = PglD DTNB; D = E-sel inducer; E = C2C12 statin; F = PGC1a acetyl inh
Structure: CC(=O)c1cccc(NC(=O)N2CCCC2C(=O)NC2CCCC2)c1 (configuration not stated)
  A: -5 | B: -5 | C: -2 | D: x | E: 1 | F: x

Structure: Cc1cccc(NC(=O)C2CCCN2C(=O)OCC(C)C)c1 (configuration not stated)
  A: 2 | B: 0 | C: -2 | D: x | E: x | F: x

Structure: COc1ccc(OC)c(NC(=O)C2CCCN2C(=O)OCc2ccccc2)c1 (configuration not stated)
  A: 1 | B: -4 | C: -4 | D: x | E: 28 | F: -8

Structure: CC(=O)c1cccc(NC(=O)N2CCCC2C(=O)Nc2cc(C)ccc2C)c1 (configuration not stated)
  A: 3 | B: -2 | C: -2 | D: x | E: 115* | F: -19

Structure: O=C(c1cccc(F)c1)N1CC[C@@H]2[C@H]1c1cc(-c3ccc(F)cc3)ccc1N[C@@H]2CO
  A: -1 | B: -1 | C: 1 | D: 0 | E: -9 | F: 2

Structure: COc1cc(C)ccc1OCCCOc1cc(C)ccc1Cl
  A: -17 | B: 28 | C: 9 | D: x | E: 156* | F: -13

Structure: COc1cc(C)ccc1OCCCOc1c(Cl)cccc1Cl
  A: -16 | B: x | C: -1 | D: -3 | E: x | F: -1

Structure: CCCCNC(=O)c1nnn(-c2ccccc2)c1N
  A: -6 | B: 43* | C: -2 | D: x | E: -10 | F: -3

Structure: CN1C(=O)c2cc(NC(=O)Nc3ccccc3)ccc2OC[C@@H]2O[C@H](CC(=O)O)CC[C@@H]21
  A: x | B: 3 | C: 2 | D: 0 | E: -17 | F: x

Structure: COc1ccc(CCNC(=O)CCS(=O)(=O)c2ccc3c(c2)NC(=O)CS3)cc1OC
  A: -12 | B: -1 | C: -5 | D: 0 | E: 13 | F: 1

Structure: COc1ccc(CCNS(=O)(=O)c2ccc3c(c2)NC(=O)CS3)cc1OC
  A: -12 | B: 3 | C: -4 | D: 114* | E: -7 | F: 4

Structure: COc1ccc(-c2csc(COC(=O)C(C)(C)C)n2)cc1
  A: x | B: x | C: x | D: 2 | E: x | F: x

Structure: CC(C)(C)C(=O)OCc1nc(-c2ccc(Cl)cc2)cs1
  A: -25 | B: 65* | C: 3 | D: x | E: 9 | F: 3

Structure: CC(C)NC(=O)N(C)C[C@H]1OCCCC[C@H](C)Oc2ccc(NC(=O)Cc3ccccc3)cc2C(=O)N([C@@H](C)CO)C[C@H]1C
  A: x | B: x | C: -1 | D: 0 | E: x | F: -1

Structure: CC1=NN(C(N)=S)C(=O)C1N=Nc1ccc(Cl)cc1 (configuration not stated)
  A: -11 | B: 28 | C: 1 | D: x | E: -10 | F: 4

Sorted by value in PglD DTNB (rising): 3 of the compounds above
Molecule	PglD DTNB
COc1ccc(CCNC(=O)CCS(=O)(=O)c2ccc3c(c2)NC(=O)CS3)cc1OC	-5
O=C(c1cccc(F)c1)N1CC[C@@H]2[C@H]1c1cc(-c3ccc(F)cc3)ccc1N[C@@H]2CO	1
CN1C(=O)c2cc(NC(=O)Nc3ccccc3)ccc2OC[C@@H]2O[C@H](CC(=O)O)CC[C@@H]21	2

Continuation.
Short keys: A = Yeast UUG start; B = esBAF inh; C = PglD DTNB; D = E-sel inducer; E = C2C12 statin; F = PGC1a acetyl inh
Structure: CC1=NN(C(N)=S)C(=O)C1N=Nc1cccc(Cl)c1C (configuration not stated)
  A: -15 | B: 51* | C: -8 | D: x | E: -10 | F: x

Structure: COc1ccc(/C=C2\CCC(C3CCCC3)C2=O)cc1 (configuration not stated)
  A: -26 | B: 56* | C: -5 | D: 1 | E: -5 | F: 9

Structure: CCOC(=O)C1=C(C)N=C2SC(C)C(=O)N2C1c1ccccc1 (configuration not stated)
  A: -4 | B: -1 | C: -2 | D: 0 | E: 13 | F: 1

Structure: CCOC(=O)C1=C(C)N=C2SC(C)C(=O)N2C1c1ccc(C(=O)OC)cc1 (configuration not stated)
  A: -5 | B: 2 | C: -4 | D: x | E: 91* | F: -18

Structure: COc1cc2sc3cc(NCC[C@@H]4CCCN4C)ccc3c(=O)c2cc1OC
  A: 0 | B: 53* | C: -1 | D: x | E: 18 | F: 3

Structure: COc1cccc2sc3ccc(NCCC4CCCN4C)cc3c(=O)c12 (configuration not stated)
  A: 7 | B: 9 | C: 2 | D: 0 | E: 7 | F: x

Structure: CCOc1ncccc1C(=O)OCC(=O)c1cc(C)n(Cc2ccco2)c1C
  A: -47 | B: 58* | C: -4 | D: x | E: 4 | F: -20

Structure: COc1cc(-c2nc(-c3ccc(Br)o3)no2)cc(OC)c1OC
  A: -23 | B: 23 | C: x | D: 3 | E: -1 | F: 4

Structure: COc1ccc(-c2noc(-c3ccc(Br)o3)n2)cc1OC
  A: -9 | B: 54* | C: 2 | D: x | E: -8 | F: 10

Structure: COc1ccc(Cc2nc(-c3ccc(Br)o3)no2)cc1OC
  A: 4 | B: 49* | C: -5 | D: 0 | E: 34 | F: 6

Structure: C/C=C/c1cnc2c(c1)C(=O)N([C@H](C)CO)C[C@H](C)[C@H](CN(C)Cc1ccncc1)O2
  A: -4 | B: 2 | C: 15 | D: 0 | E: -23 | F: -8

Structure: C[C@H](CO)N1C[C@H](C)[C@@H](CN(C)Cc2ccc(-c3ccccc3)cc2)Oc2ccc(NC(=O)Cc3ccccc3)cc2CC1=O
  A: 14 | B: -4 | C: 0 | D: 7 | E: 76* | F: -2

Structure: C[C@@H]1CN([C@@H](C)CO)C(=O)Cc2cc(NC(=O)Cc3cn(C)c4ccccc34)ccc2O[C@H]1CN(C)Cc1ccc(C(F)(F)F)cc1
  A: -3 | B: 5 | C: 2 | D: 61* | E: 104* | F: -8
